The numbers were not newly measured in US8404449B2, “Stochastic sensing through covalent interactions” (dated 2013), which cites them from elsewhere.

For this series the following is noted: given in comparison; for DTT the first pKa; cited from earlier work.

Regarding 2-mercaptoethanol, the pKa was 9.5.
